The values below come from PMC4749168, “Potentiation of ΔF508- and G551D-CFTR-Mediated Cl^- Current by Novel Hydroxypyrazolines” (PLoS ONE, 2016).

Protein sequences, listed by entry. Tags and fused reporters are not part of them. Lines headed by an entry give the natural chain unless they say otherwise; changes in a name come on top. Chains listed by the source or under a name are the forms on record and can include a tag or linker. Residues count along the entry.
UniProt P13569, 1-1480 with tags or gaps DEL508-508: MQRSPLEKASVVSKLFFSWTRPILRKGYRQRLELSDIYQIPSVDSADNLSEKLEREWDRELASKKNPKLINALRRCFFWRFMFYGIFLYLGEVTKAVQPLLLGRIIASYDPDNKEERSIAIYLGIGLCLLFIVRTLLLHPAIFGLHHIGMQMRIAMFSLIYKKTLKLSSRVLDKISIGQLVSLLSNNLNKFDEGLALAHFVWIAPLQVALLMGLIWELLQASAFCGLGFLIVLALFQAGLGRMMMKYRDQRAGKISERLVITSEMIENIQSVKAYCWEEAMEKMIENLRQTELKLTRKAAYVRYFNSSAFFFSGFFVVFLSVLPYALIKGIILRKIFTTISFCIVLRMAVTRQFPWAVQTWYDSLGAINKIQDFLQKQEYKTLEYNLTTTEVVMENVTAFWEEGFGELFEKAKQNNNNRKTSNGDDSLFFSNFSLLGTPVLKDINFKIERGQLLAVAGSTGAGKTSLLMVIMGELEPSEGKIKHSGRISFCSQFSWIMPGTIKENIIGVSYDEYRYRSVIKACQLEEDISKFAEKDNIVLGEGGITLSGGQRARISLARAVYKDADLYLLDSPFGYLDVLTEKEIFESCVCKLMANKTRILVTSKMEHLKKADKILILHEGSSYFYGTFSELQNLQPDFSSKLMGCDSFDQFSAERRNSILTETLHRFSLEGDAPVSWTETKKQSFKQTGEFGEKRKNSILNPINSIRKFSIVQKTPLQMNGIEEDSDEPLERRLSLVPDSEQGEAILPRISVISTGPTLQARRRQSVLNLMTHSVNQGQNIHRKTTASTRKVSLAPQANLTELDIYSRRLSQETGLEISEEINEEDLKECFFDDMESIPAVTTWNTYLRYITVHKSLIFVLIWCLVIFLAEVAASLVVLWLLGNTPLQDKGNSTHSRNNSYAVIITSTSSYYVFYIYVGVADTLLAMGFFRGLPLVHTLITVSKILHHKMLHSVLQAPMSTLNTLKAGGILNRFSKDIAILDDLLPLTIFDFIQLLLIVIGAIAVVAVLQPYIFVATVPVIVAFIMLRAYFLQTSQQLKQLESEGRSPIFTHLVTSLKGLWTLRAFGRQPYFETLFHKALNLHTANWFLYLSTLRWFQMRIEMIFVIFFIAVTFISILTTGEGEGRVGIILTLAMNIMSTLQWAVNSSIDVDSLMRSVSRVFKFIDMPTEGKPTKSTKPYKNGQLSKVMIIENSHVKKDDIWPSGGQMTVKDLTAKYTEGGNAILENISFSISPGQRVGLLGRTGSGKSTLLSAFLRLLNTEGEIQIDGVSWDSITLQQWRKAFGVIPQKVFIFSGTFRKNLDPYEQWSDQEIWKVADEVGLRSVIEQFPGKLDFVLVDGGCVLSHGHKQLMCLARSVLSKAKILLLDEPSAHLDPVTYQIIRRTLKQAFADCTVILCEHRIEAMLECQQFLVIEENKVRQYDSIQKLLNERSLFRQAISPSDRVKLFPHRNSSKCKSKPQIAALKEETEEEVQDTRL
UniProt P13569, whole entry: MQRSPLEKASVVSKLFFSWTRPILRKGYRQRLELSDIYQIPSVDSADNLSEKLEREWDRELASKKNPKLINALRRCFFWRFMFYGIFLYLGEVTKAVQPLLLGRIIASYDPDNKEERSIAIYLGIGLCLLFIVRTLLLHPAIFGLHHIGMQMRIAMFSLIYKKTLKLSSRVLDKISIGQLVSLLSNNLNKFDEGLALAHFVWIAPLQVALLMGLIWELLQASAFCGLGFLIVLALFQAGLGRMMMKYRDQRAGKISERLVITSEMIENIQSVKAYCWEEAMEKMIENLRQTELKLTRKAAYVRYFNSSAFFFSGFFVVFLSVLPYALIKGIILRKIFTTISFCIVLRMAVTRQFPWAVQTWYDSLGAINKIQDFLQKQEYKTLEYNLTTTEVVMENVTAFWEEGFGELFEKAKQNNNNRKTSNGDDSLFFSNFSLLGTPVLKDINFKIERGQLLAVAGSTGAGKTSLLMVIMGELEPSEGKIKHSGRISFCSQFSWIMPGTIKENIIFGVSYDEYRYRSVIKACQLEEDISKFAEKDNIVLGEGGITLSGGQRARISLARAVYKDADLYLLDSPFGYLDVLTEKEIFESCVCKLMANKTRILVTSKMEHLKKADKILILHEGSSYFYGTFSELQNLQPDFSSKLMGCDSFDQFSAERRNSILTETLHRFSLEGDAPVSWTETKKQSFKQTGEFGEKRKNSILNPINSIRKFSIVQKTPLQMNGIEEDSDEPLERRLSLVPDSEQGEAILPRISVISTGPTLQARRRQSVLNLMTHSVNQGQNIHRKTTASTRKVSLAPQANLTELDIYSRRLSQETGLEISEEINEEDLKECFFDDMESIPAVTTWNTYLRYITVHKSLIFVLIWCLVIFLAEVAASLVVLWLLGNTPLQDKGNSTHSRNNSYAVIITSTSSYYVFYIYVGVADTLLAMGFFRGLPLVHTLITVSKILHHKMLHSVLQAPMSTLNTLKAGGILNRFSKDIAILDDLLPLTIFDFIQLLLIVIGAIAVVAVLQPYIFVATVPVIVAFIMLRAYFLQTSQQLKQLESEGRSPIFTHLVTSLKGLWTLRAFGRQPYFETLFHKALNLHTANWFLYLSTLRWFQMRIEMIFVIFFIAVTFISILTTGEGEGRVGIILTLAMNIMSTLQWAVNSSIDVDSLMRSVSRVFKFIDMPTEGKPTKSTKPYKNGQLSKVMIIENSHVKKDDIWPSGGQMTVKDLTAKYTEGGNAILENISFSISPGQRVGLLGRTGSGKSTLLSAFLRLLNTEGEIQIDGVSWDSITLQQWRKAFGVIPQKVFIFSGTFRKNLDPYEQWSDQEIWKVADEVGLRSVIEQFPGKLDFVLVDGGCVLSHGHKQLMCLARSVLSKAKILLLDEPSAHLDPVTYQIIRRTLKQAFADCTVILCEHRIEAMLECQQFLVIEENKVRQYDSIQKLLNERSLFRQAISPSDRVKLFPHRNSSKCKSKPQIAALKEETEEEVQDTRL

Values joined by “and” are separate entries in the source; they are usually repeats but may differ in a detail not shown here. Equal entries are not always repeated.

The target of one experiment is WT-CFTR (Homo sapiens, UniProt P13569). In words: Halide-sensitive YFP microplate reader assay of CFTR potentiation, WT-CFTR. As to conditions: read-out: EC50 (μM) WT- CFTR, FRT cells, 0.1 μM forskolin. Here is the method: (§1) FRT cells expressing wild type- or ΔF508-CFTR with the halide sensor YFP-H148Q/I152L were plated in 96-well black-walled microplates (Corning Inc., Corning, NY) at a density of 2 x10^4cells per well. FRT-WT-CFTR-YFP cells were incubated for 48 h at 37°C, and FRT-ΔF508-CFTR-YFP cells were incubated for 24 h at 27°C after 24 h incubation at 37°C to rescue ΔF508-CFTR localization. Assays were done using FLUO star Omega microplate reader (BMG Labtech, Ortenberg, Germany) and MARS Data Analysis Software (BMG Labtech). Each well of a 96-well plate was washed 3 times in PBS (200 μL/wash). 100 μL PBS was added to each well. Forskolin (0.1 and 10 μM for WT- and ΔF508-CFTR, respectively) and test compounds (1 μL) were added to each well. After 10 min, 96-well plates were transferred to the microplate reader preheated to 37°C for fluorescence assay. Each well was assayed individually for CFTR-mediated I^- influx by recording fluorescence continuously (200 ms per point) for 2 s (baseline), then 100 μL of 140 mM I^- solution was added at 2 s and then YFP fluorescence was recorded for 14 s. Initial iodide influx rate was determined from the initial slope of fluorescence decrease, by nonlinear regression, following infusion of iodide.

In a further experiment the target is ΔF508-CFTR (Homo sapiens, UniProt P13569, DEL508-508). In words: Halide-sensitive YFP microplate reader assay of CFTR potentiation, ΔF508-CFTR. The settings on record: for EC50: read-out: EC50 (μM) ΔF508-CFTR, FRT cells rescued at 27°C, 10 μM forskolin; for EC50 (μM) ΔF508-CFTR: FRT cells rescued at 27°C, 10 μM forskolin. On the procedure: as §1

As a reminder, the EC50 is the concentration at which the effect is half-maximal. `COc1ccc(C2CC(c3cc(C)ccc3O)=NN2c2ccc(S(N)(=O)=O)cc2)cc1OC` (centres unmarked): the EC50 came to 38.6 µM at WT-CFTR and 83 µM at ΔF508-CFTR.

With `COc1cccc(C2CC(c3cc(Cl)ccc3O)=NN2c2ccc(S(N)(=O)=O)cc2)c1OC` (centres unmarked), the EC50 on WT-CFTR turned out to be 92.5 µM. Moreover, on ΔF508-CFTR, the “EC50 (μM) ΔF508-CFTR” value was “inactive”.

Turning to `COc1ccc(C2CC(c3c(O)cccc3O)=NN2c2ccc(S(N)(=O)=O)cc2)cc1OC` (centres unmarked), the EC50 at WT-CFTR was determined as 24.3 µM. Also, the “EC50 (μM) ΔF508-CFTR” value at ΔF508-CFTR was “inactive”.

As to `COc1ccc(C2CC(c3cc(Cl)ccc3O)=NN2c2ccc(S(N)(=O)=O)cc2)c(OC)c1` (centres unmarked), the EC50 at WT-CFTR was 13.1 µM. Besides, the “EC50 (μM) ΔF508-CFTR” value at ΔF508-CFTR was “inactive”.

With `COc1cccc(C2CC(c3c(O)cccc3OC)=NN2c2ccc(S(N)(=O)=O)cc2)c1OC` (centres unmarked), the EC50 on WT-CFTR came out at 56.5 µM. In addition, the “EC50 (μM) ΔF508-CFTR” value at ΔF508-CFTR is “inactive”.

For `COc1cccc(C2CC(c3ccc(O)cc3O)=NN2c2ccc(S(N)(=O)=O)cc2)c1OC` (centres unmarked), the EC50 on WT-CFTR is 12.7 µM; at ΔF508-CFTR, < 10 µM and 8.6 µM.

For the compound `COc1ccc(C2CC(c3cc(Cl)ccc3O)=NN2c2ccc(S(N)(=O)=O)cc2)cc1OC` (centres unmarked), the EC50 on WT-CFTR was 41.2 µM. In addition, on ΔF508-CFTR, the “EC50 (μM) ΔF508-CFTR” value is “inactive”.

On to `COc1ccc(C2CC(c3ccc(O)cc3O)=NN2c2ccc(S(N)(=O)=O)cc2)cc1OC` (centres unmarked), for which the EC50 on WT-CFTR was 2.4 µM; on ΔF508-CFTR it was < 10 µM and 8.9 µM.

As for `COc1ccc(C2CC(c3cc(C)ccc3O)=NN2c2ccc(S(N)(=O)=O)cc2)c(OC)c1` (centres unmarked), at WT-CFTR, the EC50 stood at 10.9 µM. Also, on ΔF508-CFTR, the “EC50 (μM) ΔF508-CFTR” value is “inactive”.

With `COc1ccc(C2CC(c3c(O)cccc3OC)=NN2c2ccc(S(N)(=O)=O)cc2)cc1OC` (centres unmarked), on WT-CFTR, the EC50 was 50.6 µM. Also, at ΔF508-CFTR, the “EC50 (μM) ΔF508-CFTR” value was “inactive”.

As for `COc1cccc(C2CC(c3c(O)cccc3O)=NN2c2ccc(S(N)(=O)=O)cc2)c1OC` (centres unmarked), the results for the EC50 at WT-CFTR and at ΔF508-CFTR were 8.7 µM and 42.2 µM, respectively.

For `COc1ccc(C2CC(c3c(O)cccc3OC)=NN2c2ccc(S(N)(=O)=O)cc2)c(OC)c1` (centres unmarked), the EC50 on WT-CFTR was found to be 63.3 µM. Besides, the “EC50 (μM) ΔF508-CFTR” value on ΔF508-CFTR is “inactive”.

In the case of `COc1ccc(C2CC(c3c(O)cccc3O)=NN2c2ccc(S(N)(=O)=O)cc2)c(OC)c1` (centres unmarked), the figures for the EC50 on WT-CFTR and at ΔF508-CFTR were 27 µM and 38.5 µM, respectively.
